Biological target: T1, human recombinant Keap1 (Homo sapiens, UniProt Q14145)
T1 construct: purchased BPS bioscience, San Diego, CA
Assay: fluorescence polarization competitive inhibition screening assay (Keap1/Nrf2 disruption)
Assay type: binding
Conditions: 0.001 to 1000 μM; FIG. 24

Protein sequences, listed by entry. Tags and fused reporters are not part of them.
UniProt Q14145, whole entry: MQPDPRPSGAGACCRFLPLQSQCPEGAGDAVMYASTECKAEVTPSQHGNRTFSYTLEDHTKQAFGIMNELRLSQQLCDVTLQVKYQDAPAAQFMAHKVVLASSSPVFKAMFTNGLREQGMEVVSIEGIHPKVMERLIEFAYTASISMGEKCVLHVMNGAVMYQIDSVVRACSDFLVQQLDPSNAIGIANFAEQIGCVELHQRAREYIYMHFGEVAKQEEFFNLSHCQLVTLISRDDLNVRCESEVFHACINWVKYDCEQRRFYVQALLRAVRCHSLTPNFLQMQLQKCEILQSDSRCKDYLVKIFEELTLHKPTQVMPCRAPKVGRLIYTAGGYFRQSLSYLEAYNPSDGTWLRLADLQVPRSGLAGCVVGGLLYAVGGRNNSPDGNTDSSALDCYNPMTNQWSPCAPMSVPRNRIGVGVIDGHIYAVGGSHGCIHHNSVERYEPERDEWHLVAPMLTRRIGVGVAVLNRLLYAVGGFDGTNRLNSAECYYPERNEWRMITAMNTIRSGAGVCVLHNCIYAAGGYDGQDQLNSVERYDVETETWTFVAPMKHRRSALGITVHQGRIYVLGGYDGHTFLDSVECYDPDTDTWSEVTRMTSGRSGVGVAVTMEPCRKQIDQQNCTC

ScrambleR PLP: scrambleRRRR polynorbornene dicarboxyimide-based brush polymer comprising SEQ ID NO: 146 (DELEPLTGFRRRR) peptide monomer, Example 14
inhibition of the binding of Nrf2-peptide SEQ ID: 1 to Keap1 protein: did not inhibit

Full Scramble PLP: full scramble polynorbornene dicarboxyimide-based brush polymer comprising SEQ ID NO: 143 (DERLERPLTRGFR) peptide monomer, Example 13 (polynorbornene brush polymer)
inhibition of the binding of Nrf2-peptide SEQ ID: 1 to Keap1 protein: did not inhibit
